The source of these data is patent publication US5668161A, “Substituted thiazoles for the treatment of inflammation” (G.D. Searle & Co., priority 1996, dated 1997).

The test addresses T1, murine COX-II (Mus musculus, UniProt Q05769).
T1 sequence (Q05769 18-604): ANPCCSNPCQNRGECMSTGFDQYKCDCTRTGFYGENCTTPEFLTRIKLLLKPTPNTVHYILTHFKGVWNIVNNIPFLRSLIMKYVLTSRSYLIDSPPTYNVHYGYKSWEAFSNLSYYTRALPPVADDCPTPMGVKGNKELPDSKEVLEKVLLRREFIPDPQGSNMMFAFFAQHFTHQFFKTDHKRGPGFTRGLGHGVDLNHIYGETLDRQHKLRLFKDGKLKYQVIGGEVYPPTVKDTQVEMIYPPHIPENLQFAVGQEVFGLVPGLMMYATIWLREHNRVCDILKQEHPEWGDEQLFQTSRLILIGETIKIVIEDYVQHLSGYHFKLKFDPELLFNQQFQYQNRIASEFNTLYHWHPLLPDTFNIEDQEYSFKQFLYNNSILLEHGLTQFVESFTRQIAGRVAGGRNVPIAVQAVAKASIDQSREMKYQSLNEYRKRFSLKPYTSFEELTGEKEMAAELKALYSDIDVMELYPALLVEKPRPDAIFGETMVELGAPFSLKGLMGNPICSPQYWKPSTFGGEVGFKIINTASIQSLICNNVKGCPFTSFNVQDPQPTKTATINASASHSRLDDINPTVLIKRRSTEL
As to the kind of experiment: biochemical.

A word on the IC50: it is the point on the concentration scale where inhibition reaches its midpoint. Low values mean higher potency, high ones lower potency. `CS(=O)(=O)c1ccc(-c2sc(COc3ccc(Cl)cc3)nc2-c2ccc(F)cc2)cc1` [Example 1, 2-((4-Chlorophenoxy)methyl)-4-(4-fluorophenyl)-5-(4-methylsulfonylphenyl)thiazole] displayed an IC50 of 100 nM.
